Laboratory results from PubChem BioAssay (Tox21).
Values joined by “and” are separate entries in the source; they are usually repeats but may differ in a detail not shown here. Equal values may be shown once. The list shows a part of the results, in another mix than the full data. Records with an inconclusive call do not appear. Active and inactive are the calls of the source. Unless noted, calls come from the whole dose curve; as a rule, active = well fitted curve in the direction sought with a large enough effect in the repeat runs; inconclusive = weak or mixed curves; inactive = no such curve, though single readings can be large; an effect the other way counts as inactive or inconclusive.

By UniProt entry, the sequences of proteins in these tests, tags left out.
UniProt P37231, whole entry: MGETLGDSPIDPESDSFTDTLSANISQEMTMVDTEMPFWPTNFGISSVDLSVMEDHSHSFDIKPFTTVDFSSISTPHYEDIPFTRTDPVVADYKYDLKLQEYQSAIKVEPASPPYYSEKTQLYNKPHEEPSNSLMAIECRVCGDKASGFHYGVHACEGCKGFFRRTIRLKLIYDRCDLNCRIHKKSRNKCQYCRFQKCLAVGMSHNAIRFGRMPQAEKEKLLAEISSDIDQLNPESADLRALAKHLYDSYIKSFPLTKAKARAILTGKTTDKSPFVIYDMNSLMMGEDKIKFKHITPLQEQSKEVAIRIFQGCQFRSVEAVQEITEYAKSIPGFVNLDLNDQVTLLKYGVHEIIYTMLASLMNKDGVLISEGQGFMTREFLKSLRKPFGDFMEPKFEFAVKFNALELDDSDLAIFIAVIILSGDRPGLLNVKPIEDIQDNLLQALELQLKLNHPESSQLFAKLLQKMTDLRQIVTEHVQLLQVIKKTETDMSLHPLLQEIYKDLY
UniProt Q03181, whole entry: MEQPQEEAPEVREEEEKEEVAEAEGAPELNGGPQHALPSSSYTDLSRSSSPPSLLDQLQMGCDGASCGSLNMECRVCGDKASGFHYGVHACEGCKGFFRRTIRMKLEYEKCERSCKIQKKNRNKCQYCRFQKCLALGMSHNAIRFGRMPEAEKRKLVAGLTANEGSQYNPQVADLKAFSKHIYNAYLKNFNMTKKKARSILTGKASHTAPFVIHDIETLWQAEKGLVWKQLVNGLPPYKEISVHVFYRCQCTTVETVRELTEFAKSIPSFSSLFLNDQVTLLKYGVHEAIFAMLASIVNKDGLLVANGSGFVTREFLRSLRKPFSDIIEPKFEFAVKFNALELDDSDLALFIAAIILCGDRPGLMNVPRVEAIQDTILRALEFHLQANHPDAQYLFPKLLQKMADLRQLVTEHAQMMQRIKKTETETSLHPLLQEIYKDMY
UniProt Q96RI1, whole entry: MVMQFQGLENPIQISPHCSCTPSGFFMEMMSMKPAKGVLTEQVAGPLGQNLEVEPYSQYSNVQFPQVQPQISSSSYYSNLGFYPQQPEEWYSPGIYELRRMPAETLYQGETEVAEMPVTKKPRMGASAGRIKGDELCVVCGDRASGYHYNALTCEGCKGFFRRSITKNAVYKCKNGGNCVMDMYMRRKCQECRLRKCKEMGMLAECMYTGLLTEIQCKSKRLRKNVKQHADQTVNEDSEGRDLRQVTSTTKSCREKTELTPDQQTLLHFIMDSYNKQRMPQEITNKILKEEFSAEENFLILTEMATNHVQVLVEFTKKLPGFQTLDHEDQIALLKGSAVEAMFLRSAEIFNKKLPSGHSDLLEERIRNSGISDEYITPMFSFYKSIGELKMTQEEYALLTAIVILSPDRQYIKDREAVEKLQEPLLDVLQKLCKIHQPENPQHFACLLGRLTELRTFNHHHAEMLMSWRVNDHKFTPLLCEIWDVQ
UniProt P11473, whole entry: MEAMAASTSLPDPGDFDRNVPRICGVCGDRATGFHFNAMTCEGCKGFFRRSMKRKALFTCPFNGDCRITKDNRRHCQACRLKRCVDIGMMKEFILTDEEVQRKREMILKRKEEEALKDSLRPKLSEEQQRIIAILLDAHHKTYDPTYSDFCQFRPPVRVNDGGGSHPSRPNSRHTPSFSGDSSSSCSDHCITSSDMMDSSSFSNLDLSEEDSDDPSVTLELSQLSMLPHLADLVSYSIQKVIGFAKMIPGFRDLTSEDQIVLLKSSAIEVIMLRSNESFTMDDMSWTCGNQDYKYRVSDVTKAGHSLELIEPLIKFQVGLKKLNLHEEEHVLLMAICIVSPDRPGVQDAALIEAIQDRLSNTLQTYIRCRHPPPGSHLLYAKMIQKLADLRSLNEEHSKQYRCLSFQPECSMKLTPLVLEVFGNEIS

Assays:
[1] = target: Peroxisome proliferator-activated receptor gamma (Homo sapiens) (UniProt P37231); test: qHTS assay to identify small molecule antagonists of the peroxisome proliferator-activated receptor gamma (PPARg) signaling pathway (AID 743191; calls by dose curve; note: nearly all actives have a fitted effect of over 30% in size); conditions: HEK293H PPARg-UAS-bla, beta-lactamase ratio, antagonist, 17 h; at 62.6 µM (top of the series) unless noted
Outline: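 Beta-lactamase reporter under UAS control in HEK293H PPARg-bla cells; compound treatment 17 h at 37C. Read-out: fluorescence intensity after 1 h room-temperature incubation with LiveBLAzer B/G FRET substrate.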

[2] = qHTS assay to identify small molecule antagonists of the peroxisome proliferator-activated receptor gamma (PPARg) signaling pathway - cell viability counter screen (AID 743194); conditions: PPARg-bla HEK293H viability, CellTiter-Glo luminescence, 17 h; at 62.6 µM (top of the series); co-treated with 50 nM rosiglitazone; note: nearly all actives have a fitted effect of over 55% in size
Outline: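 Viability was measured as CellTiter-Glo luminescence in GeneBLAzer PPARg UAS-bla HEK293H cells. These cells had been exposed 17 h at 37 C to compounds together with rosiglitazone at 50 nM final, with the beta-lactamase readout taken in the same wells.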

[3] = qHTS assay for small molecule agonists of the antioxidant response element (ARE) signaling pathway - cell viability counter screen (AID 743203; calls by dose curve; note: nearly all actives have a fitted effect of over 55% in size); conditions: ARE-bla HepG2 viability, CellTiter-Glo luminescence, 16 h; at 73.3 µM (top of the series)
Outline: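 Luminescence read-out (CellTiter-Glo, 30 min at room temperature) measured cell viability in the same wells as the ARE beta-lactamase reporter. HepG2 ARE-bla cells were treated with compounds for 16 hrs at 37C/5% CO2.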

[4] = qHTS assay for small molecule activators of the heat shock response signaling pathway - cell viability counter screen (AID 743209); conditions: HSE-bla HeLa viability, CellTiter-Glo luminescence, 5 h; at 62.6 µM (top of the series); note: nearly all actives have a fitted effect of over 50% in size
Outline: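 HSE-bla HeLa; 1500 cells/well; overnight 37 C, 5% CO2; compound 5 h 37 C; LiveBLAzer B/G substrate 2.5 h RT; CellTiter-Glo 30 min RT; luminescence.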

[5] = qHTS assay to identify small molecule agonists of the peroxisome proliferator-activated receptor delta (PPARd) signaling pathway - cell viability counter screen (AID 743211); conditions: PPARd-bla HEK293H viability, CellTiter-Glo luminescence, 17 h; at 62.6 µM (top of the series); note: nearly all actives have a fitted effect of over 55% in size
Outline: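 Multiplexed format: after the 2 h room-temperature LiveBLAzer B/G FRET step, CellTiter-Glo was added to the same wells. Luminescence after 30 min gave cell viability; compound exposure was 17 h at 37C.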

[6] = target: Peroxisome proliferator-activated receptor delta (Homo sapiens) (UniProt Q03181); test: qHTS assay to identify small molecule agonists of the peroxisome proliferator-activated receptor delta (PPARd) signaling pathway (AID 743212; calls by dose curve); conditions: HEK293H PPARd-UAS-bla, beta-lactamase FRET ratio, 17 h; at 62.6 µM (top of the series)
Outline: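 Beta-lactamase reporter readout: a ratiometric FRET signal from the LiveBLAzer substrate after 2 h at room temperature. Compound exposure at 37 °C in PPARδ-bla HEK293H cells driven by an upstream activator sequence.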

[7] = qHTS assay to identify small molecule antagonists of the peroxisome proliferator-activated receptor delta (PPARd) signaling pathway - cell viability counter screen (AID 743213); conditions: PPARd-bla HEK293H viability, CellTiter-Glo luminescence, 17 h; at 62 µM (top of the series); note: nearly all actives have a fitted effect of over 50% in size
Outline: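 Same-well viability: cells pre-incubated 5 h, dosed with compound plus 300 nM L165041, kept 17 h at 37 C, FRET substrate 2 h RT, then CellTiter-Glo 30 min RT and luminescence.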

[8] = target: Peroxisome proliferator-activated receptor delta (Homo sapiens) (UniProt Q03181); test: qHTS assay to identify small molecule antagonists of the peroxisome proliferator-activated receptor delta (PPARd) signaling pathway (AID 743215; active = well fitted inhibition curve with a large enough effect in the signal ratio in the repeat runs, not every such curve was filed as active; the % refers to the signal ratio;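 note: cells stimulated with agonist L165041 at 300 nM final during compound exposure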); conditions: HEK293H PPARd-UAS-bla, beta-lactamase FRET ratio, antagonist, 17 h; at 62 µM (top of the series)
Outline: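 HEK293H GeneBLAzer PPARd UAS-bla reporter cells; cpd + L165041 300 nM final, 17 h 37 C; LiveBLAzer B/G FRET substrate 2 h RT; fluorescence intensity read-out. Antagonist mode.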

[9] = target: Bile acid receptor (Homo sapiens) (UniProt Q96RI1); test: qHTS assay to identify small molecule antagonists of the farnesoid-X-receptor (FXR) signaling pathway (AID 743217; active = well fitted inhibition curve with a large enough effect in the signal ratio in the repeat runs, not every such curve was filed as active; the % refers to the signal ratio); conditions: HEK293T FXR-UAS-bla, beta-lactamase ratio, CDCA-stimulated, 16 h; at 62.6 µM (top of the series)
Outline: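 Read-out: beta-lactamase FRET fluorescence (LiveBLAzer B/G substrate, 2 h, room temperature) in GeneBLAzer FXR-UAS-bla HEK 293T cells. Compounds were co-dosed with 50 uM chenodeoxycholic acid (final) and incubated 16 h at 37 °C.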

[10] = qHTS assay to identify small molecule agonists of the farnesoid-X-receptor (FXR) signaling pathway - cell viability counter screen (AID 743218); conditions: FXR-bla HEK293T viability, CellTiter-Glo luminescence, 16 h; at 62.6 µM (top of the series); note: nearly all actives have a fitted effect of over 45% in size
Outline: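 Luminescence from CellTiter-Glo, read after 30 min at RT, reports viability of GeneBLAzer FXR-UAS-bla HEK 293T cells treated 16 h with compounds in the wells used for the beta-lactamase reporter.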

[11] = target: Bile acid receptor (Homo sapiens) (UniProt Q96RI1); test: qHTS assay to identify small molecule agonists of the farnesoid-X-receptor (FXR) signaling pathway (AID 743220; active = well fitted activation curve with a large enough effect in the signal ratio in the repeat runs, not every such curve was filed as active; the % refers to the signal ratio); conditions: HEK293T FXR-UAS-bla, beta-lactamase FRET ratio, 16 h; at 62.6 µM (top of the series)
[12] = qHTS assay to identify small molecule antagonists of the farnesoid-X-receptor (FXR) signaling pathway - cell viability counter screen (AID 743221; active = well fitted cell-killing curve with a large enough effect in the repeat runs, not every such curve was filed as active; note: nearly all actives have a fitted effect of over 50% in size); conditions: FXR-bla HEK293T viability, CellTiter-Glo luminescence, 16 h; at 62.6 µM (top of the series)
Outline: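 CellTiter-Glo, 30 min RT, luminescence; same wells as the LiveBLAzer FRET read. Cells: FXR-UAS-bla HEK 293T. Treatment: compound with chenodeoxycholic acid 50 uM final, 16 h at 37 C.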

[13] = qHTS assay to identify small molecule agonists of the vitamin D receptor (VDR) signaling pathway - cell viability counter screen (AID 743224); conditions: VDR-bla HEK293T viability, CellTiter-Glo luminescence, 16 h; at 62.6 µM (top of the series); note: nearly all actives have a fitted effect of over 50% in size
Outline: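 Cytotoxicity counter screen: VDR-bla cells, 16 h compound exposure at 37C, 5% CO2; CellTiter-Glo luminescence, 30 min RT, same wells as bla read.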

[14] = qHTS assay to identify small molecule antagonists of the vitamin D receptor (VDR) signaling pathway - cell viability counter screen (AID 743225); conditions: VDR-bla HEK293T viability, CellTiter-Glo luminescence, 16 h; at 61 µM (top of the series); note: nearly all actives have a fitted effect of over 50% in size
Outline: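 Cytotoxicity toward the VDR-bla HEK 293T line was scored by ATP-based CellTiter-Glo luminescence, read in the wells already used for the beta-lactamase readout after 16 h compound treatment under 3 nM 1-alpha,25-dihydroxyvitamin D3 stimulation.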

[15] = qHTS assay to identify small molecule agonists of the NFkB signaling pathway (AID 1159509; active = well fitted curve in the direction sought with a large enough effect in the signal ratio in the repeat runs, not every such curve was filed as active; the % refers to the signal ratio); conditions: NFkB-bla ME-180 cells, beta-lactamase FRET ratio, 5 h; at 61 µM (top of the series)
Outline: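 Agonist activity was read as beta-lactamase-driven FRET change (460 and 530 nm emission, 405 nm excitation) following 1.5 hr substrate loading at room temperature. Beforehand, ME-180 NFkB-bla reporter cells were treated with compounds for 5 hr at 37 C.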

[16] = qHTS assay to identify small molecule agonists of the NFkB signaling pathway - cell viability counter screen (AID 1159515; calls by dose curve; note: nearly all actives have a fitted effect of over 55% in size); conditions: NFkB-bla ME-180 viability, CellTiter-Glo luminescence, 5 h; at 61 µM (top of the series)
Outline: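 ME-180 NFkB-bla cells, 2,000/well; overnight attach; compound 5 hr, 37 C/5% CO2; LiveBLAzer substrate 1.5 hr RT; then CellTiter-Glo in same wells, 30 min RT, luminescence read.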

[17] = qHTS assay for small molecule agonists of the antioxidant response element (ARE) signaling pathway (AID 743202; active = well fitted activation curve with a large enough effect in the signal ratio in the repeat runs, not every such curve was filed as active; the % refers to the signal ratio); conditions: HepG2 ARE-bla reporter, beta-lactamase FRET, 16 h; at 73.3 µM (top of the series)
Outline: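 After 16 hours of compound treatment at 37 C, HepG2 cells with a stably integrated ARE-driven beta-lactamase reporter were loaded 2 hours at room temperature with LiveBLAzer B/G FRET substrate and fluorescence intensity measured.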

[18] = target: Vitamin D3 receptor (Homo sapiens) (UniProt P11473); test: qHTS assay to identify small molecule antagonists of the vitamin D receptor (VDR) signaling pathway (AID 743223; active = well fitted inhibition curve with a large enough effect in the signal ratio in the repeat runs, not every such curve was filed as active; the % refers to the signal ratio); conditions: VDR-UAS-bla HEK293T, beta-lactamase FRET ratio, 16 h; at 61 µM (top of the series)
Outline: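 After VDR-bla cells are plated and left 4 h at 37C, DMSO-dissolved compounds and 3 nM (final) calcitriol agonist are added. Incubation continues 16 h at 37C; FRET beta-lactamase substrate then develops 2 h at room temperature.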
% is set by controls: 0 for no effect and ±100 for the full control effect.

CCOP(=O)(Cl)Cl
inactive: ratio activity, negative = inhibition [1] -10.7% and 6.4% | activity change, negative = cytotoxicity [2] 1.44% | viability change, negative = cytotoxic [3] 0.0229% and 0.605% | activity change, negative = cytotoxicity [4] -6.2% and 3.68% | activity change, negative = cytotoxicity [5] 7.37% and -20.6% | activation [6] -1.04% and -1.5% | viability change, negative = cytotoxic [7] -2.26% and 0.0576% | ratio activity, negative = inhibition [8] -2.47% and 10.8% | activity change, negative = inhibition [9] 1.08% | viability change, negative = cytotoxic [10] 25.9% | activation [11] 3.02% and -0.204% | activity change, negative = cytotoxicity [12] -2.23% and 26.1% | activity change, negative = cytotoxicity [13] 3.32% and -2.53% | viability change, negative = cytotoxic [14] -11.5% and 2.76% | activation [15] -0.0198% and 0.0063% | activity, negative = cytotoxic [16] 5.04% and -3.52%

CCOP(=S)(Cl)OCC
inactive: activity change, negative = cytotoxicity [2] -16.3% | activation [17] -1.05% | viability change, negative = cytotoxic [3] -12.8% | activity change, negative = cytotoxicity [4] 1.07% | activity change, negative = cytotoxicity [5] -0.531% | viability change, negative = cytotoxic [7] -5.75% | viability change, negative = cytotoxic [10] 20.5% | activation [11] -4.81% | activity change, negative = cytotoxicity [12] -3.32% | activity change, negative = inhibition [18] -23.2% | activity change, negative = cytotoxicity [13] -13.4% | viability change, negative = cytotoxic [14] -3.13% | activation [15] -0.293% | activity, negative = cytotoxic [16] -5.7%
